Laboratory results from US20100189688A1, “Dose forms comprising VX-950 and their dosage regimen” (priority 2007, published 2010).

Tested on: genotype 1 hepatitis C
Test: Phase 1b 14-day study of VX-950, VX-950/Peg-IFN-2a or Peg-IFN-2a followed by Peg-IFN-2a/RBV: HCV RNA and SVR (Example 9)
Settings: group sizes N 7 / 8 / 4

## Peg-IFN-2a: Peginterferon alfa-2a
  Undetectable HCV RNA at 24-week off study peg-IFN-2a/RBV treatment: 3 N
